Data reported in patent US7173027B2, “Receptor selective cannabimimetic aminoalkylindoles” (University of Connecticut, priority 2001, dated 2007).
Read-outs that look alike come from different tables or passages of the source.

By UniProt entry, the sequences of proteins in these tests, tags left out. Where a name states a change or a piece, a line headed by the entry shows the natural chain unless it says otherwise.
UniProt P47936: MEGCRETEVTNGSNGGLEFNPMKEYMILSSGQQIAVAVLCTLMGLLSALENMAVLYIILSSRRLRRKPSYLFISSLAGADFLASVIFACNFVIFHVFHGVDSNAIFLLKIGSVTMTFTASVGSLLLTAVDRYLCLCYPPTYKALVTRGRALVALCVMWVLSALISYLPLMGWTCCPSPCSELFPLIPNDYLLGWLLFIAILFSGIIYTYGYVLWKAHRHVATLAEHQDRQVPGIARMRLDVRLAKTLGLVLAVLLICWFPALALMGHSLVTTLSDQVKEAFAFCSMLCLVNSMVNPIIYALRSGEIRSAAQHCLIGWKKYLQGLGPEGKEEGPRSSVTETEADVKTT

Target: T1, CB2 receptor (Mus musculus, UniProt P47936)
T1 construct: membranes were prepared from frozen mouse spleen; from tissue; host or cells: frozen mouse spleen membranes
Assay: CB2 receptor binding, mouse spleen membranes, [3H]CP-55,940 displacement
Method: The prepared cannabinoid compounds were tested for CB2 receptor binding affinity and for CB1 receptor affinity (to determine selectivity for the CB2 receptor). As used herein, “binding affinity” is represented by the IC50 value which is the concentration of an analog required to occupy the 50% of the total number (Bmax) of the receptors. The lower the IC50 value, the higher the binding affinity. […] The binding affinities (Ki) are expressed in nanomoles (nM).
The treated membranes were subsequently used in the binding assay described below. Approximately 30 μg of membranes were incubated in silanized 96-well microtiter plate with TME containing 0.1% essentially fatty acid-free bovine serum albumin (BSA), 0.8 nM [^3H] CP-55,940, and various concentrations of test materials at 30° C. for 1 hour. The samples were immediately filtered using a Packard Filtermate 196 and Whatman GF/C filterplates and washed with wash buffer (TME) containing 0.5% BSA. Radioactivity was detected using MicroScint 20 scintillation cocktail added directly to the dried filterplates, and the filterplates were counted using a Packard Instruments Top-Count. Nonspecific binding was assessed using 100 nM CP-55,940. Data collected from three independent experiments performed with duplicate determinations was normalized between 100% and 0% specific binding for [^3H] CP-55,940, determined using buffer and 100 nM CP-55,940.The normalized data was analyzed using a 4-parameter nonlinear logistic equation to yield IC50 values. Data from at least two independent experiments performed in duplicate was used to calculate IC50 values which were converted to Ki values using the using the assumptions of Cheng et al; “Relationship Between the Inhibition Constant (Ki) and the concentration of Inhibitor which causes 50% Inhibition (IC50) of an Enzymatic Reaction”, Biochem. Pharmacol., 22, 3099–3102, (1 973), which is incorporated by reference herein.
For the CB2 receptor binding studies, membranes were prepared from frozen mouse spleen essentially according to the procedure of P. R. Dodd et al; “A Rapid Method for Preparing Synaptosomes: Comparison with Alternative Procedures”, Brain Res., 226, 107–118 (1981) which is incorporated by reference herein. Silanized centrifuge tubes were used throughout to minimize receptor loss due to adsorption. The CB2 binding assay was conducted in the same manner as the CB1 binding assay. The binding affinities (Ki) were also expressed in nanomoles (nM).

With `CN1CCCC[C@H]1Cn1cc(C(=O)c2ccccc2I)c2ccccc21` [2-24(S)] the Ki (Table 1, read-out: Ki nM CB2) was 583 nM.

For `CN1CCCC[C@H]1Cn1cc(C(=O)c2ccccc2I)c2ccccc21` [2-34(S)], the Ki (Ki nM CB2, Table 2) was 6.79 nM.

`CN1CCCC[C@@H]1Cn1cc(C(=O)c2ccccc2I)c2ccccc21` [2-24(R)] gave a Ki (Ki nM CB2, Table 1) of 2.1 nM.

Work on `CN1CCCCC1Cn1cc(C(=O)c2ccccc2I)c2ccccc21` (racemic) [2-34(R,S)] yielded a Ki (Table 2, read-out: Ki nM CB2) of 3.34 nM.

`CN1CCCC[C@@H]1Cn1cc(C(=O)c2ccccc2I)c2ccccc21` [2-34(R)] showed a Ki (Ki nM CB2, Table 2) of 1.56 nM.
